The values that follow are results of earlier work, collected in patent publication US20260224597A1, “METHODS FOR ACTIVATING IMMUNE CELLS TO KILL BACTERIA” (The Texas A&M University System, priority 2023, published 2026).

The chains behind the UniProt entries cited, without tags or fusion partners.
UniProt Q92551, whole entry: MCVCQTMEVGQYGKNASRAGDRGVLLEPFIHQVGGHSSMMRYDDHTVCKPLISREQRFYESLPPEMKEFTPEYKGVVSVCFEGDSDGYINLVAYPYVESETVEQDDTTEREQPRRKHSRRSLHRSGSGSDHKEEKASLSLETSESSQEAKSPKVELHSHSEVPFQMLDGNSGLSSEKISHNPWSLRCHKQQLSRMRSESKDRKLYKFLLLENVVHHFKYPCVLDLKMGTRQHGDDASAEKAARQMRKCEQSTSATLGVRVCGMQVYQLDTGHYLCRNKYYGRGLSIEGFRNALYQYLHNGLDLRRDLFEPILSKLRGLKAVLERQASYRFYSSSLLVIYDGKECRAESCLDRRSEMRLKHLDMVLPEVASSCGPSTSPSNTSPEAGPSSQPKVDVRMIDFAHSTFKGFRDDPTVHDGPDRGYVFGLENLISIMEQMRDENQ

This data set has as its target IP6K1 (Homo sapiens, UniProt Q92551). As to conditions: read-out: IC50 as to IP6K1; Liao 2021; cited from earlier work.

As for `O=C(O)c1ccc2c(c1)C1(CCN(C(=O)c3ccc(Cl)cc3)CC1)C(=O)N2`, the IC50 (commonly the concentration that inhibits the measured activity by half) was 20 nM.
